The numbers were not newly measured in paper PMC8453943 (Clinical Pharmacology in Drug Development, 2021), which cites them from elsewhere.

This data set relates to EGFR. The note with it: NSCLC with EGFR exon 20 insertion mutations; cited from earlier work.

In the case of `COc1cc2ncnc(Nc3ccc(F)c(Cl)c3)c2cc1OCCCN1CCOCC1` [gefitinib], the Median progression-free survival result is on record as “≈ 2 months”.
